Experimental data as given in ChEMBL document CHEMBL1152790, “Synthesis and pharmacological characterization of beta2-adrenergic agonist enantiomers: zilpaterol” (J Med Chem, 2009).

By UniProt entry, the sequences of proteins in these tests, tags left out.
UniProt Q8K4Z4, whole entry: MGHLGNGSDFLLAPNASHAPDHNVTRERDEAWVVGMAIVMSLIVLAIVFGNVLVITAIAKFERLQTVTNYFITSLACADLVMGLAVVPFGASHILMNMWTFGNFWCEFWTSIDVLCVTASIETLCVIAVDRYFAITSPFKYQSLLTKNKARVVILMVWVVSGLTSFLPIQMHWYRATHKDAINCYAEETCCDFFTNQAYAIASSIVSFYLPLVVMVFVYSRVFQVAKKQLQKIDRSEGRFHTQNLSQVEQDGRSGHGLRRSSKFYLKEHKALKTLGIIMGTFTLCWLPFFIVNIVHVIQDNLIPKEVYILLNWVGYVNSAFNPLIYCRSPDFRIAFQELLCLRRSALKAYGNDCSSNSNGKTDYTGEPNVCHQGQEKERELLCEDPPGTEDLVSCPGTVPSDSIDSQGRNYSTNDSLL

Molecular target: Beta-2 adrenergic receptor (Cavia porcellus, UniProt Q8K4Z4)

SMILES: CC(C)(C)NCC(O)c1ccc(O)c(CO)c1 (racemic) [ALBUTEROL]
- EC50: 9.1 nM
